Like-named read-outs stand apart in the source and are kept apart here.
Columns and labels:
MOR [1] = target: T1, MOR (Homo sapiens, UniProt P35372); assay: cell-based; details: read-out: Emax for G-protein activation
Experimental: The G-protein pathway activation was performed as previously described.[40] Briefly, the G-protein pathway activation was measured using HitHunter cAMP assays, which quantify cAMP, a secondary messenger involved in G-protein-coupled receptor (GPCR) signaling. This assay employed Enzyme Fragment Complementation (EFC) technology with β-galactosidase (β-Gal) as the reporter enzyme. Upon activation, β-Gal produces a chemiluminescent signal that is detected using a microplate reader, providing a quantitative measure of G-protein pathway activity.

Sequences of proteins named here, by UniProt entry; tags and fusion partners are left off.
UniProt P35372, whole entry: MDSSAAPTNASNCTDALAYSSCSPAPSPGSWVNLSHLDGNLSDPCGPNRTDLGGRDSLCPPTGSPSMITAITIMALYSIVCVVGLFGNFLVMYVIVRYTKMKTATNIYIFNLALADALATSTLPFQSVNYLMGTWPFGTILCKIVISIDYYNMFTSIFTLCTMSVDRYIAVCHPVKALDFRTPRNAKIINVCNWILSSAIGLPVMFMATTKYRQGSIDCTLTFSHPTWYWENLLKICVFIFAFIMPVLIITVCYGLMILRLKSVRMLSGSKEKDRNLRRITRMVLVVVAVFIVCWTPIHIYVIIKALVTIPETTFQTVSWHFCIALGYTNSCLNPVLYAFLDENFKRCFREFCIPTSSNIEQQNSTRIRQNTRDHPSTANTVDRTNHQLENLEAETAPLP

MOR [2] = target: T1, MOR; assay: cell-based; details: read-out: Emax for β-arrestin recruitment
Experimental: The β-Arrestin recruitment assay was performed as previously described.[41] Briefly, the PathHunter β-Arrestin assay was used to monitor GPCR activation through β-arrestin recruitment. This assay also utilized EFC technology, with β-Gal as the reporter enzyme. In this system, the Enzyme Acceptor (EA) fragment was fused to β-arrestin, and the ProLink (PK) fragment was fused to the GPCR of interest. Upon GPCR activation, EA and PK complementation restored β-Gal activity, generating a chemiluminescent signal that was measured using PathHunter Detection Reagents.

`CSCC[C@H](NC(=O)[C@H](Cc1ccccc1)NC(=O)CNC(=O)CNC(=O)[C@@H](N)Cc1ccc(O)cc1)C(=O)O` [[Met^5]enkephalin] showed an Emax (MOR [1]) of 100% and an Emax (MOR [2]) of 100%.

— paper PMC11915030 (ACS Pharmacology & Translational Science, 2025)
